Measurements from patent publication US6552087B1 (Abbott GmbH & Co. KG, priority 1999, dated 2003).
Structures can show the parent of a compound that is named as a salt.

Chains of the proteins cited; added tags and fusions are not shown.
UniProt P31652, whole entry: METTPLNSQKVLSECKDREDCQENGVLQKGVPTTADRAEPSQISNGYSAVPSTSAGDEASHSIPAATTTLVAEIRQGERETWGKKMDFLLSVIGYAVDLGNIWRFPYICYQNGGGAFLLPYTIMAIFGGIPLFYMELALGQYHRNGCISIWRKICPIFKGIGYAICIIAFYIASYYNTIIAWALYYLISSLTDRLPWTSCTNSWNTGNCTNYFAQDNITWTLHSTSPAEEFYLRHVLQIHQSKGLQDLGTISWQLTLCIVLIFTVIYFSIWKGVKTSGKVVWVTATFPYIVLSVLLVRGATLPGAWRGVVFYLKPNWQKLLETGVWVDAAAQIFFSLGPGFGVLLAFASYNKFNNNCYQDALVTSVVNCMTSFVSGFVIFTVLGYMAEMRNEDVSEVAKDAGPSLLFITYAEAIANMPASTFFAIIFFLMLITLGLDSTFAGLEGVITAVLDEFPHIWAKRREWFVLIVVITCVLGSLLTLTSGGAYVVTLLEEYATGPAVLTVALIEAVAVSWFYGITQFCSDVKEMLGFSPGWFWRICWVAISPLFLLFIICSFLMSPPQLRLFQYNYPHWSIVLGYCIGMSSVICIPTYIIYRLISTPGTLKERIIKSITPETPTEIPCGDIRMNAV

How the values were obtained:
5-HT reuptake site [1] = target: T1, 5-HT reuptake site (Rattus norvegicus, UniProt P31652); assay: biochemical
5-HT reuptake site [2] = target: T1, 5-HT reuptake site; settings: rat frontal cortex, [3H]paroxetine; mean ± SEM

SMILES	Ki (5-HT reuptake site [1]) [nM]	Hill slope, 5-HT reuptake site (5-HT reuptake site [2])
CC(C)C[C@H](N(C)C)C1(c2ccc(Cl)cc2)CCC1.Cl [(−)-Sibutramine, (−)-N-{1-[1-(4-chlorophenyl)cyclobutyl]-3-methylbutyl}-N,N-dimethylamine hydrochloride]	944 ± 112	[1.10 ± 0.03]
CC(C)C[C@@H](N(C)C)C1(c2ccc(Cl)cc2)CCC1 [(+)-Sibutramine, hydrochloride]	2270 ± 263	[0.99 ± 0.03]
CC(C)CC(N(C)C)C1(c2ccc(Cl)cc2)CCC1 (racemic) [Sibutramine, N,N-dimethyl-1-[1-(4-chlorophenyl)cyclobutyl]-3-methylbutylamine]	2140 ± 137	[1.262 ± 0.05]
